Test results as given in PMC5467207, “Single-peptide DNA-dependent RNA polymerase homologous to multi-subunit RNA polymerase” (Nature Communications, 2017).

Tested on: Nc1ncnc2c1ncn2[C@@H]1O[C@H](COP(=O)(O)OP(=O)(O)OP(=O)(O)O)[C@@H](O)[C@H]1O
Experiment: purified protein
Conditions: 10 °C, assembled elongation complex (template DNA, RNA primer), 20 mM Tris-HCl pH 8.5, 40 mM KCl, 10 mM MgCl2

Substance: E. coli core msRNAP (Escherichia coli K-12)
- Km: 0.6 ± 0.2 µM
